From patent US10874644B2, “Therapeutic approaches for treating Alzheimer disease and related disorders through a modulation of synapse function” (Pharnext, priority 2008, dated 2020)

Experiments:
[1] = system: rat primary cortical neurons; experiment: Neurite outgrowth (neurites length) in beta-amyloid Aβ25-35 intoxicated rat primary cortical neuron culture; assay type: cell-based; details: Aβ25-35 20 μM for 2 days, drug added 1 hour before, Fig. 1A, 1B
Text: Viable cells are counted in a Neubauer cytometer using the trypan blue exclusion test.

[2] = system: rat primary cortical neurons; experiment: LDH release in human Aβ1-42 toxicity on rat primary cortical cells; assay type: cell-based; details: 1 h pre-treatment, Aβ1-42 10 μM for 24 h; Fig. 3B, 3C
Method: Primary rat cortical neurons are cultured as described previously. […] The control medium was prepared in the same conditions.
Cortical neurons were intoxicated for 24 hours. Three separate cultures were performed per condition, 6 wells per condition.
This colorimetric assay for the quantification of cell toxicity is based on the measurement of lactate dehydrogenase (LDH) activity released from the cytosol of dying cells into the supernatant.

[H]/N=C(/N)N/C(=N/[H])NCCc1ccccc1 [Phenformin]
Prevention of Aβ25-35 intoxication (neurite outgrowth, neurites length) [1]: significantly prevented | Prevention of Aβ1-42 intoxication, change of LDH release [2]: −56%
